## Apparent affinities of Ab-14 variants for a coronavirus HR2 peptide

Target peptide (SARS-CoV-2 spike, HR2 region): PDVDLGDISGINAS

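Phage display of a naive human antibody library on the peptide gave the parent. Library AAYL49 holds single substitutions and randomly drawn double and triple substitutions in the CDRs. AlphaSeq pools MATa yeast showing the antibodies with MATalpha yeast showing the peptide. Pairs that bind mate more often; barcode pairs of the diploids are counted by sequencing. The ratio of observed to expected reads was calibrated, replicate by replicate, on BCL2-family standards whose Kd was known from biolayer interferometry. There are three technical replicates.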

The variants keep the light chain, the linker and the frameworks of Ab-14 (scFv order VH, a (GGGGS)3 linker, VL).
VH: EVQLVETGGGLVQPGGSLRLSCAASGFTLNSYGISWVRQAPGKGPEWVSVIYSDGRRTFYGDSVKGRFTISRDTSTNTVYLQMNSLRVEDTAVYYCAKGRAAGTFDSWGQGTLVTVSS
VL: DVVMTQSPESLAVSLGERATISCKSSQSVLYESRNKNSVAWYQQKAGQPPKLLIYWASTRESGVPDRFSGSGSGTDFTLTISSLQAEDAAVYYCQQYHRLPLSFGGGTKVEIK

Positions count from residue 1 of the parent VH; L29R puts R in place of L. Values are log10 of the apparent Kd in nM; lower means stronger binding. A mean of the replicates is given; it leaves out those without a signal. "n.d." marks a missing value. The strain was present, yet no cells mated with the target were sequenced in that replicate, which points to weak or no binding. For reference, the parent read 0.65 as the reference entry and 4.11 (one replicate of three) as a member of this library. As a blank, each scFv also met three strains without target: over library AAYL49, 15% of these pairings were detected, typically at 4.06 and seldom below 2.83. For each scFv, signals with the empty controls are counted beside the result, with their mean in brackets.

changes	log10 Kd, replicates	log10 Kd (nM), mean	signal with controls
L29R F59W D62F	n.d. / 4.78 / n.d.	4.78	2 of 9 (3.41)
L29I Y52D K65N	4.78 / n.d. / 3.13	3.95	3 of 9 (3.93)
N30K Y52W A101P	n.d. / n.d. / n.d.	n.d.	4 of 9 (3.32)
F27E D54K Y60T	6.13 / 5.31 / n.d.	5.72	2 of 9 (3.65)
Y60P F105K D106S	n.d. / 4.92 / 5.55	5.23	2 of 9 (4.17)
F27L S63I F105I	5.76 / n.d. / n.d.	5.76	4 of 9 (4.64)
Y32H Y60F R100V	n.d. / n.d. / n.d.	n.d.	0 of 9
S53P F59T D62T	3.66 / n.d. / 5.16	4.41	1 of 9 (3.24)
Y52V V64H S107F	n.d. / n.d. / n.d.	n.d.	0 of 9
V50Y S53K S107K	n.d. / n.d. / n.d.	n.d.	0 of 9
D62Q A102F T104E	n.d. / n.d. / n.d.	n.d.	0 of 9
G33V R56Y F105L	n.d. / n.d. / n.d.	n.d.	1 of 9 (2.37)
G26L A101E G103C	3.60 / 2.72 / n.d.	3.16	1 of 9 (4.19)
I34T I51V G55M	n.d. / n.d. / n.d.	n.d.	0 of 9
Y32Q	1.79 / 2.00 / 1.64	1.81	0 of 9
L29Q I34L V50F	6.53 / 5.65 / 4.43	5.54	4 of 9 (4.37)
I34W D54Q S107D	n.d. / n.d. / n.d.	n.d.	1 of 9 (3.27)
T28D S63Q G99F	n.d. / n.d. / n.d.	n.d.	0 of 9
I34S T58C A101G	3.82 / n.d. / n.d.	3.82	1 of 9 (2.66)
S53R T58Q	n.d. / n.d. / n.d.	n.d.	2 of 9 (4.02)
F59E D62W	2.22 / 2.85 / 3.26	2.78	0 of 9
S63Q V64A T104D	n.d. / n.d. / n.d.	n.d.	0 of 9
T28F I51H T104N	n.d. / n.d. / n.d.	n.d.	0 of 9
S53I A102Q	n.d. / 4.97 / n.d.	4.97	0 of 9
T28A R56M R57V	n.d. / 3.93 / n.d.	3.93	1 of 9 (3.92)
S53I D54E G103S	n.d. / 3.28 / n.d.	3.28	1 of 9 (2.57)
F27M T58N F59P	n.d. / n.d. / n.d.	n.d.	1 of 9 (4.18)
N30L G61N D62M	n.d. / 2.78 / n.d.	2.78	2 of 9 (4.73)
F27W A101T	0.83 / 1.10 / 1.21	1.05	1 of 9 (4.03)
N30Q I51P G55Y	n.d. / 3.96 / n.d.	3.96	3 of 9 (3.33)
R56Q S63M V64H	n.d. / n.d. / n.d.	n.d.	1 of 9 (3.55)
L29F I34F K65Y	n.d. / n.d. / n.d.	n.d.	1 of 9 (2.66)
Y32H G61M A102M	n.d. / 3.28 / n.d.	3.28	1 of 9 (2.98)
Y52D G61T G103I	n.d. / n.d. / n.d.	n.d.	0 of 9
N30M S31M G55W	n.d. / n.d. / n.d.	n.d.	1 of 9 (4.95)
I51F Y52K S53M	n.d. / n.d. / n.d.	n.d.	0 of 9
Y60F G103W D106R	3.09 / 3.60 / 3.05	3.25	6 of 9 (4.63)
N30Q D54I V64E	n.d. / n.d. / n.d.	n.d.	0 of 9
G26R A101N	0.86 / 0.93 / 0.85	0.88	1 of 9 (5.93)
R56Q F59L D106T	n.d. / n.d. / 5.06	5.06	1 of 9 (4.20)
G26S I51E A102L	n.d. / n.d. / n.d.	n.d.	0 of 9
G33D S53M K65V	n.d. / n.d. / n.d.	n.d.	1 of 9 (4.19)
G103I T104C S107N	n.d. / n.d. / n.d.	n.d.	0 of 9
T28P G55T K65F	5.24 / n.d. / n.d.	5.24	4 of 9 (4.37)
R56F R57A V64W	n.d. / 3.37 / n.d.	3.37	1 of 9 (3.90)
T58A G99I A102L	n.d. / n.d. / 3.50	3.50	2 of 9 (3.46)
D62M S63D	1.66 / 1.76 / 1.63	1.68	0 of 9
F59P K65G R100D	n.d. / 2.35 / 3.44	2.90	2 of 9 (3.29)
S31N D54V K65P	n.d. / n.d. / n.d.	n.d.	0 of 9
T28R N30D D62C	n.d. / n.d. / n.d.	n.d.	1 of 9 (3.17)
T28I V64S A101E	2.12 / 1.91 / 2.14	2.06	4 of 9 (4.36)
R57T G99Q D106C	2.90 / n.d. / n.d.	2.90	1 of 9 (4.04)

From the list, the first 3 with no signal in any replicate:

changes	log10 Kd, replicates	log10 Kd (nM), mean	signal with controls
N30K Y52W A101P	n.d. / n.d. / n.d.	n.d.	4 of 9 (3.32)
Y32H Y60F R100V	n.d. / n.d. / n.d.	n.d.	0 of 9
Y52V V64H S107F	n.d. / n.d. / n.d.	n.d.	0 of 9

Data: MIT Lincoln Laboratory AlphaSeq set, Engelhart et al. 2022, doi:10.1038/s41597-022-01779-4, as distributed in FLAb.